US20070282004A1, “Use of a Cyclopentenone Prostaglandin for Delaying for the Onset and/or Preventing the Continuation of Labour” (Imperial College Innovations Limited, priority 2003, published 2007)

The chains behind the UniProt entries cited, without tags or fusion partners.
UniProt P37231, whole entry, species assumed: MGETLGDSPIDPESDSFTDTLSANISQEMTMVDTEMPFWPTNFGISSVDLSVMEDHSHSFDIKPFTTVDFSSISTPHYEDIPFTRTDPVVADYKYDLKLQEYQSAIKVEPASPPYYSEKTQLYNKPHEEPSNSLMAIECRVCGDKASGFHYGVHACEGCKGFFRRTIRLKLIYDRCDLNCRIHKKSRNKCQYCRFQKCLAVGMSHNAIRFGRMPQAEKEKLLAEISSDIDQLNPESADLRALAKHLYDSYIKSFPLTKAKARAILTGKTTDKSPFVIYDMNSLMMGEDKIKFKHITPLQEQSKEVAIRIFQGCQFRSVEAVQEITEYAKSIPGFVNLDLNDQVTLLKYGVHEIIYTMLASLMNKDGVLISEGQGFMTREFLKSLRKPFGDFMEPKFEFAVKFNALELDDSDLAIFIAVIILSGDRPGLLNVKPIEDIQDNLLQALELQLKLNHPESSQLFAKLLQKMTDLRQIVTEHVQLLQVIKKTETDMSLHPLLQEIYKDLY

Target: PPAR-γ (Homo sapiens, UniProt P37231)
Assay: PPRE reporter (3-PPRE-TK.pGL3) with PPAR-γ expression construct
Conditions: myometrial and amnion cells, PPAR-γ overexpressed, 10 mM or 20 mM, 24 h

For `CN(CCOc1ccc(C[C@H](Nc2ccccc2C(=O)c2ccccc2)C(=O)O)cc1)c1ccccn1` [GW1929], the “PPAR-γ-mediated transcription of a PPRE-dependent reporter” value was “potentiate; also recorded: potentiating”.

Entries after “also recorded” stand apart in the source; their conditions may differ.
